Apparent affinities of Ab-95 variants for a coronavirus HR2 peptide

Values reported by Engelhart et al. 2022, doi:10.1038/s41597-022-01779-4 (FLAb copy).

All variants were tested on one target, the spike HR2 peptide PDVDLGDISGINAS (SARS-CoV-2).

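Library AAYL52 holds single substitutions and randomly drawn double and triple substitutions in the CDRs. In AlphaSeq, yeast of one mating type display the scFv and yeast of the other type display the target. Mating (16 h, 30 °C) was followed by selection of diploids and sequencing of their barcodes. Read counts were normalised to the haploid input and turned into Kd by a linear fit to BCL2-family pairs of known affinity, for each replicate. Each pool was mated in three replicate cultures.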

Ab-95 is the parent antibody, in scFv form: VH, then a (GGGGS)3 linker, then VL. The heavy chain is unchanged in all variants.
VH: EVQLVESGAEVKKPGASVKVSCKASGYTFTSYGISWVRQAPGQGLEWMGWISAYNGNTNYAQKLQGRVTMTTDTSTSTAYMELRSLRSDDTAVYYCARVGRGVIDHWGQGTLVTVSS
VL: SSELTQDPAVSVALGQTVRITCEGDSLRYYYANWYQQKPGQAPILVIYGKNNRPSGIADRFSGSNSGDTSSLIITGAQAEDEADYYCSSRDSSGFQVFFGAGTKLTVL

Positions count from residue 1 of the parent VL; Y30Q puts Q in place of Y.
Affinities are written as log10 Kd with Kd in nM; a lower number is a better binder.
"n.d." means that the variant was in the library but no mating with the target was seen in that replicate; the authors take this as a sign of poor binding, and no number exists.
Background: pairings of library AAYL52 with three empty control strains gave a value in 28% of cases (median 3.91, 5th percentile 2.90). Values in that range, when seen in few replicates, are hard to tell from nonspecific mating.

| # | changes | log10 Kd (nM) by replicate |
|---|---|---|
| 1 | Y30Q+P54S+F98W | 1.08 / 0.97 / 0.42 |
| 2 | G49Q+K50P+S55E | n.d. / n.d. / n.d. |
| 3 | A32H+P54F+D91K | n.d. / n.d. / n.d. |
| 4 | Y29E+N33Q+G49D | 3.58 / 3.39 / 3.01 |
| 5 | N51R+S55H+F98D | n.d. / 2.95 / 3.39 |
| 6 | G24K+Y29L+F98V | n.d. / 5.12 / n.d. |
| 7 | A32M+N33Q+K50T | 3.40 / 3.48 / n.d. |
| 8 | Y30H+N51P+V97S | 4.11 / 3.74 / n.d. |
| 9 | R53F+S88K | 4.64 / n.d. / n.d. |
| 10 | N51W+S89M+Q96V | n.d. / 4.51 / n.d. |
| 11 | S26A+S55D+S89I | 3.37 / 2.74 / 3.33 |
| 12 | L27V+N33P+K50A | 3.19 / n.d. / n.d. |
| 13 | N33K+P54M+S89K | n.d. / n.d. / 4.72 |
| 14 | K50Q+S88K+R90Q | 4.77 / n.d. / n.d. |
| 15 | D25M+A32N+S55E | 3.22 / 3.58 / 3.36 |
| 16 | E23T+S92Q+Q96C | n.d. / 4.46 / 3.71 |
| 17 | G49Y+R53L+G94N | 3.91 / n.d. / n.d. |
| 18 | Y31L+G94P+F95S | 3.93 / 3.03 / n.d. |

Second part, the sequence after the result:

| # | log10 Kd (nM) by replicate | changes |
|---|---|---|
| 19 | 4.04 / 4.42 / n.d. | D25Y+F95V+V97E |
| 20 | n.d. / 5.05 / n.d. | Y29E+N52P+R53S |
| 21 | 2.67 / 2.64 / 2.21 | D25V+Y31R+S55L |
| 22 | 4.42 / 3.20 / 4.10 | Y29T+K50E+R53E |
| 23 | 3.42 / n.d. / n.d. | Y30I+G49F+G94N |
| 24 | 3.00 / 2.93 / 2.42 | N33T+S88C+F95N |
| 25 | 4.74 / n.d. / n.d. | S26D+K50V+N51F |
| 26 | 2.47 / 2.00 / 1.71 | S26H+A32T+K50A |
| 27 | n.d. / n.d. / 3.99 | A32W+S89V |
| 28 | n.d. / n.d. / n.d. | A32Q+S55T+S89W |
| 29 | 4.14 / 5.15 / n.d. | Y31L+G49T+N51W |
| 30 | 3.85 / n.d. / n.d. | N33D+N51T+D91T |
| 31 | n.d. / 5.70 / n.d. | S26H+R53I+F98C |
| 32 | 3.33 / n.d. / n.d. | E23N+L27Q+S89N |
| 33 | 1.71 / 1.58 / 1.36 | Y30A+S55D+G94E |
| 34 | n.d. / n.d. / n.d. | S55A+S88R+D91K |
| 35 | 5.31 / 4.73 / 4.28 | L27G+P54Y+F98G |
| 36 | 2.74 / 2.44 / 2.11 | A32T+N52T |

Parent in this assay: reference entry 2.31, copy in this library 2.25.